Assay [1] has as its target human PCNA N107C, N-terminally Histidine-tagged, coupled to SulfoLink agarose resin (PCNA-Agarose column) (human) (UniProt P12004). As to the kind of experiment: salt-gradient elution from PCNA-Agarose column, empirical cumulative integration.
For assay [2] the target is unchanged. As to the kind of experiment: salt-gradient elution from PCNA-Agarose column (N107C PCNA on SulfoLink resin), EMG fit of UV 280 nm peak.

Data on 1 substance can be found in US12583886 (KING ABDULLAH UNIVERSITY OF SCIENCE AND TECHNOLOGY, dated 2026).

On to “PIP^p21-Tus: E. coli replication termination protein Tus with N-terminal p21 PIP motif, Histidine tag and SUMO tag (from UniProt P16525 1-309)”, for which, in assay [1], the median NaCl concentration of elution (50% cumulative elution) is below 300 mM. Moreover, in assay [2], the Elution Peak (mM NaCl, mode of EMG fit) came out at 227 mM.
